From PubChem BioAssay
The list is not random: actives were taken first. Their share in the collection is about 0.43%.
GIV-Gai inh: inhibitors of GIV GBA-motif binding to rat Galpha-i3. actives 0.42% (n = 210,000). Galpha-i3/FITC-GIV peptide fluorescence polarization, 90 min; active compounds read low; scaled: aluminum fluoride 0%, vehicle 100%. AID 1224905. percent of control (FP), % (no concentration beside the values). P08753;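 active means replicate mean at 85% of control or lower, very high polarization wells dropped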;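 further: wells of about 15 µL received 100 nL stock; the first replicate is given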
HCMV UL50-53 inh: inhibitors of HCMV UL50-UL53 nuclear egress complex interaction | 0.15% of 190,000 active | HTRF UL50-UL53 interaction, normalized percent inhibition | inhibition, % (concentration not given with the values); in the data active = inhibition above about 27%, passing the limit was not always enough
GIV Gai FP conf: confirmation of inhibitors of GIV binding to rat Galpha-i3; FITC-GIV peptide binding to Galphai3, fluorescence polarization; active compounds read low; shares compounds with GIV-Gai inh; 38% of 580 active; fluorescence polarization, mP at 100 µM;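 active = inhibition score of 15 or more, meaning 100 minus mean polarization as percent of control over three replicates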;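 also: lower mP means peptide displaced from Galphai3 so more inhibition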
GIV Gai AS conf: GIV-Galpha-i3 inhibition, AlphaScreen confirmation. shares compounds with GIV-Gai inh. AlphaScreen Galphai3-GIV binding, purified proteins, 90 min; active compounds read low. AlphaScreen counts at 100 µM. 39% of 580 active. AID 1259351;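 active = inhibition score at or above a set limit, where the score is 100 minus the three-replicate mean percent of control signal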
Active calls of the source: *; / = no result given.

Results follow in this order: GIV-Gai inh | HCMV UL50-53 inh | GIV Gai FP conf | GIV Gai AS conf
Cc1ccc(-c2nc3nc(C)cc(N4CCN(c5cccc(C)c5)C(C)C4)n3n2)cc1 (stereo not given)
    73.5* | 9.9 | 84.4 | 32703
COCCn1c(C)cc(C=C2C(=O)N(C)C(=S)N(C)C2=O)c1C
    92.7 | / | 70.3 | 21525*
COCCn1c(C)cc(C=C2C(=O)NC(=O)NC2=O)c1C
    98.1 | -35.1 | / | /
COc1ccc(NC(=O)CCc2c(C)nc3c(-c4ccc(F)cc4)c(C)nn3c2C)c(OC)c1
    92.3 | -7.1 | 79.9 | 32949
COc1ccc(OC)c(NC(=O)CCc2c(C)nc3c(-c4ccccc4)c(C)nn3c2C)c1
    101.5 | -4.9 | / | /
CCn1nnc2cc(-c3noc(-c4cnccn4)n3)ccc21
    98.3 | / | / | /
Cc1nc2cc(-c3noc(-c4cnccn4)n3)ccc2n(C(C)C)c1=O
    105.8 | -40.3 | 91.2 | 35710
CCOC(=O)C1=NN(c2ccc([N+](=O)[O-])cc2)C2C(=O)N(c3ccccc3Cl)C(=O)C12 (stereo not given)
    100.7 | / | / | /
N#CC1=C(SCc2ccccc2)SC(CO)NC1=O (stereo not given)
    106.5 | -15.3 | / | /
N#CC1=C(SCc2ccccc2)SC(c2ccc(C(=O)O)cc2)NC1=O (stereo not given)
    73.9* | / | 64.5 | 28170*
N#CC1=C(N)OC(N)=C(C#N)C1c1cc(Br)cs1
    / | -52.0 | / | /
CCCCCCCC/C=C\CCCCCCCC(=O)OCC(CO)OC(=O)CCCCCCC/C=C\CCCCCCCC (stereo not given)
    / | 3.6 | / | /
Cc1ccc2c(c1)c1c3c(nccn32)CCC1
    76.5* | -40.0 | 60.6* | 13099
Cc1ccc2c(c1)c1c(n2C)C(C#N)CCC1 (stereo not given)
    96.4 | -11.7 | / | /
COc1ccc(NC(=S)N(Cc2ccco2)Cc2cc3cc(C)c(C)cc3[nH]c2=O)cc1
    103.5 | -14.0 | / | /
Cc1c(C=Nc2ccc(Cl)cc2)c(O)n(C)c(=O)c1C#N
    108.4 | -35.4 | / | /
Cc1c(C=Nc2ccc(SC#N)c(Cl)c2)c(O)[nH]c(=O)c1C#N
    48.6* | -16.3 | 73.7 | 40787
c1cc(-c2nnc(C3CCCC3)o2)ccn1
    102.6 | / | / | /
CCOc1ccc2nc(N(Cc3cccnc3)C(C)=O)sc2c1
    99.5 | / | / | /
CC(O)C(O)[C@H]1CNc2nc(N)[nH]c(=O)c2N1 (stereo not given in full)
    103.4 | -53.0 | / | /

Brought forward from above: 4 entries, followed by the next part.
Results follow in this order: GIV-Gai inh | HCMV UL50-53 inh | GIV Gai FP conf | GIV Gai AS conf
Cc1c(C=Nc2ccc(SC#N)c(Cl)c2)c(O)[nH]c(=O)c1C#N
    48.6* | -16.3 | 73.7 | 40787
c1cc(-c2nnc(C3CCCC3)o2)ccn1
    102.6 | / | / | /
CCOc1ccc2nc(N(Cc3cccnc3)C(C)=O)sc2c1
    99.5 | / | / | /
CC(O)C(O)[C@H]1CNc2nc(N)[nH]c(=O)c2N1 (stereo not given in full)
    103.4 | -53.0 | / | /
C[C@H](O)C(=O)C1=Nc2c(nc(N)[nH]c2=O)NC1
    72.8* | -88.1 | 71.7 | 29102*
Cc1nnsc1C(=O)N1CCc2[nH]c3ccc(F)cc3c2C1
    99.4 | -12.3 | / | /
C=CCNC(=O)N1CCc2[nH]c3ccc(F)cc3c2C1
    85.3* | -36.1 | 58.6* | 37919
Cc1nn(CC(=O)Nc2ccc3c(c2)nc(CCNC(=O)C2CC2)n3C)c(=O)c2ccccc12
    105.2 | -22.5 | / | /
N#C/C(=C/c1ccccc1Cl)c1nc(-c2cc3ccccc3oc2=O)cs1
    101.2 | -26.3 | / | /
CCOC(=O)c1c(NC(=O)NCCN2CCCc3ccccc32)sc2c1CCCC2
    104.3 | -10.5 | / | /
Nc1nonc1C(=O)NCCN=Cc1ccccc1O
    106.0 | -1.6 | / | /
Nc1nonc1C(=O)NN=c1c(=O)c2ccccc2c1=O
    79.8* | -19.5 | 59.4 | 25933*
Cc1ccc(C)n1-c1ccc(SCC(=O)O)cc1
    6.4* | 55.5* | 16.8* | 2022*
COc1ccc(SCC(=O)O)cc1
    / | -15.6 | / | /
O=c1[nH]c(SCCO)nc2sc3c(c12)CCCC3
    / | 0.5 | / | /
O=C(O)CC(Sc1nc2sc3c(c2c(=O)[nH]1)CCCC3)C(=O)O (stereo not given)
    75.1* | / | 51.5* | 16638*
COc1cc(NC(=O)c2sc3nc4n(c(=O)c3c2C)CCCCC4)cc(OC)c1OC
    104.0 | -8.0 | / | /
COc1ccc(NC(=O)c2sc3nc4n(c(=O)c3c2C)CCC4)cc1Cl
    83.4* | 2.9 | 80 | 33472
Clc1cccc(Cl)c1Cn1nnc(N2CCCCC2)n1
    97.8 | 1.3 | / | /
Cc1cc(C)cc(N2C(=O)N(Cc3cc(=O)n4ccccc4n3)c3ccccc3S2(=O)=O)c1
    106.7 | / | / | /
O=C1N(Cc2cc(=O)n3ccccc3n2)c2ccccc2S(=O)(=O)N1c1ccc(Cl)cc1
    84.5* | / | 50.7* | 35949
Cc1c(C)[n+]([O-])c2ccc3c(non3O)c12
    93.9 | -97.9 | / | /
COn1c(C)c(C)c2c3no[n+]([O-])c3ccc21
    72.0* | -8.2 | 60.5 | 22452*
CCN(CCN(C)C)c1ncc(C(=O)O)cc1NS(=O)(=O)c1ccc(C(C)C)cc1
    60.3* | -17.6 | 41* | 35632
CCN(CC)c1ncc(C(=O)O)cc1NS(=O)(=O)c1c(C)cc(C)cc1C
    80.7* | -21.2 | 71.1 | 22183
CCN(CCN(C)C)c1ncc(C(=O)O)cc1NS(=O)(=O)c1ccc(F)c(F)c1
    60.6* | -13.0 | 36.5* | 38193
CCN(CCN(C)C)c1ncc(NS(=O)(=O)c2cc(C)c(C)cc2C)cc1C(=O)O
    58.3* | -41.8 | 42.6* | 27195
CCN(CC)c1ncc(NS(=O)(=O)c2cc(C)c(C)cc2C)cc1C(=O)O
    107.2 | -39.7 | / | /
CCCCN(C)c1ncc(C(=O)O)cc1NS(=O)(=O)c1cc(F)ccc1F
    111.9 | -45.6 | / | /
Cc1cc(C)cc(S(=O)(=O)Nc2cc(C(=O)O)cnc2N(CC(C)C)CC(C)C)c1
    116.7 | -33.6 | / | /
CC(C)c1ccc(S(=O)(=O)Nc2cc(C(=O)O)ccc2N(C)C)cc1
    102.8 | 10.8 | / | /
Cc1cc(C)c2nc3s/c(=C/c4ccc(Br)c([N+](=O)[O-])c4)c(=O)n3c2c1
    106.0 | -14.9 | / | /
CSc1nc(C)nc(-n2cccc2)c1C#N
    102.4 | -6.3 | / | /
CCOC(=O)c1c(Nc2nc(-c3cc4ccccc4o3)cs2)sc(C)c1C
    / | -0.2 | / | /
COc1cccc(CNS(=O)(=O)c2ccc3[nH]c4c(c3c2)CCCCC4)c1
    102.8 | / | / | /
O=C(c1ccc(COCC(F)(F)F)cc1)N1CCCC1
    101.9 | -24.3 | / | /
CN1CCN(c2ccc(C(=O)O)cc2NS(=O)(=O)c2ccccc2)CC1
    111.5 | -8.9 | / | /
CN(C)c1ncc(C(=O)O)cc1NS(=O)(=O)c1ccccc1
    49.2* | -38.1 | 36.2* | 8377*
Cc1cccc(NC(=O)NC(C)c2c(-n3cccc3)sc(C)c2C)c1C (stereo not given)
    89.1 | / | 71.2 | 49525
Cc1ccc(NC(=O)NC(C)c2c(-n3cccc3)sc(C)c2C)cc1F (stereo not given)
    102.9 | -29.0 | / | /
CC(=Nc1ccc(C)cc1C)c1sc2ccccc2c1O
    214.6 | / | / | /
O=C(Nc1ccc(Cl)cc1)C1CCCN(C(=O)c2ccccc2F)C1 (stereo not given)
    102.2 | / | / | /
O=C(NCCc1ccccc1)C1CCN(c2cnccn2)CC1
    101.7 | -18.8 | / | /
O=C(NC1CCN(Cc2ccccc2)CC1)C1CCN(c2cnccn2)CC1
    66.6* | -14.3 | 62 | 43938

Rewritten bar-delimited: two of the compounds above.
SMILES | GIV-Gai inh | HCMV UL50-53 inh | GIV Gai FP conf | GIV Gai AS conf
CCCCCCCC/C=C\CCCCCCCC(=O)OCC(CO)OC(=O)CCCCCCC/C=C\CCCCCCCC (stereo not given) | / | 3.6 | / | /
C[C@H](O)C(=O)C1=Nc2c(nc(N)[nH]c2=O)NC1 | 72.8* | -88.1 | 71.7 | 29102*

Additional compounds follow.
Results follow in this order: GIV-Gai inh | HCMV UL50-53 inh | GIV Gai FP conf | GIV Gai AS conf
CN(CC(=O)O)S(=O)(=O)c1ccc2c(c1)OCCO2
    98.6 | -20.1 | / | /
O=C(Nc1ccc(N2CCOCC2)cc1)Nc1ccc2nc(-c3ccco3)c(-c3ccco3)nc2c1
    97.0 | -37.9 | / | /
O=C(NCCCO)Nc1ccc2nc(-c3ccco3)c(-c3ccco3)nc2c1
    80.8* | 1.1 | 57.7* | 1698*
C=CCOc1ccc(CNCc2cccnc2)cc1OC
    106.0 | -1.9 | / | /
CCOC(=O)CCc1ccc(OCc2ccccc2)c(I)c1
    99.5 | -4.7 | / | /
